Laboratory results from patent publication US10512810B1, “Method for decontaminating skin exposed to toxic compounds” (dated 2019).

Columns and labels:
[1] = Aging of DAM in bi-pack package, NMR spectra
[2] = DAM aging in water, degradation kinetics by 1H NMR with Arrhenius model; conditions: for k: predicted from Arrhenius model
[3] = DAM aging in PEG 200, degradation kinetics by 1H NMR with Arrhenius model; conditions: for k: predicted from Arrhenius model
[4] = DAM neat aging at 30, 50 and 70° C., 1H NMR; conditions: 6-7 weeks at 70° C.

diacetylmonoxime
time at which degradation products first show in NMR ([1]; DAM in water (FIG. 8, peak 810)): ≥ 2 weeks | degradation in NMR without versus with potassium bicarbonate ([1]; FIG. 9, without Potassium Bicarbonate): more than with Potassium Bicarbonate | degradation in NMR ([1]; bipack with DAM in PEG (FIG. 8)): no degradation is present | A (Arrhenius pre-exponential factor) ([2]; DAM in water): 1.611e+15 day⁻¹ | E_a of DAM degradation (Arrhenius Thermal model) ([2]; DAM in water): 24.9 kcal/mol | aging by 1H NMR, effect of potassium bicarbonate ([2]; DAM in water with potassium bicarbonate): retarded somewhat | aging by 1H NMR ([2]; DAM in water, 1 week at 70° C.): rapidly aged | k ([2]; DAM in water, 20° C.): 0.000447 day⁻¹ | k ([2]; DAM in water, 30° C.): 0.00143 day⁻¹ | k ([2]; DAM in water, 50° C.): 0.0374 day⁻¹ | shelf life at 70° C. ([2]; DAM in water, 70° C.): 4 days | k ([2]; DAM in water, 70° C.): 0.172 day⁻¹ | projected room temperature half-life ([2]; DAM stored in water (10% DAM in water, FIG. 7)): 2.5 years | temperature corresponding to a 4-year shelf life ([2]; water and DAM together): 20 °C | increase of shelf life at 70° C., DAM separated from water versus in water ([3]; 70° C.): 17 factor | A (Arrhenius pre-exponential factor) ([3]; DAM in PEG 200): 3.157e+17 day⁻¹ | E_a of DAM degradation (Arrhenius Thermal model) ([3]; DAM in PEG 200): 30.8 kcal/mol | k ([3]; DAM in PEG 200, 20° C.): 3.52e-06 day⁻¹ | k ([3]; DAM in PEG 200, 30° C.): 2.54e-05 day⁻¹ | k ([3]; DAM in PEG 200, 50° C.): 0.00029 day⁻¹ | k ([3]; DAM in PEG 200, 70° C.): 0.0101 day⁻¹ | shelf life at 70° C. ([3]; DAM separated from water (in PEG), 70° C.): 68 days | projected room temperature half-life ([3]; DAM stored with PEG (10% DAM in PEG, FIG. 7)): hundreds of years | aging by 1H NMR ([3]; DAM with PEG 200, 70° C., two weeks): Some changes were seen | temperature corresponding to a 4-year shelf life ([3]; water and DAM separated): 50 °C | aging by 1H NMR [4]: showed little propensity to age
